A549 tox-1 = counter-screen for Nrf2 inhibitors: cytotoxicity in A549 cells | Potency, µM (highest dose often 46 µM), without a hit: top-dose activity change, negative = cytotoxicity, usual class: inhibitors | AID 504648 | A549 ARE-Fluc cells, CellTiter-Fluor viability, 18-24 h | hit rate 0.16% among 390,000; also: potency is read from the fitted curve at half-maximal effect; % is scaled to controls: 0 for no effect and ±100 for the full control effect
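A549 ARE-Fluc cells in 5% FBS OPTI-MEM, 5000 cells/well, rested 2 h then exposed to compounds in concentration-response for 18-24 h at 37 °C. Viability by CellTiter-Fluor fluorescence (Ex 405/Em 525) after 30 min; luciferase luminescence (BugLite, 15 min, RT) read afterwards.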
Nrf2 activator = Nrf2 pathway activation; AREc32 ARE-luciferase reporter (MCF7-derived line), luminescence, 24 h; Potency, µM (top dose mostly 46.1 µM), without a hit: at the highest dose activation, usual class: activators; hit rate 0.31% among 410,000; also: potency is read from the fitted curve at half-maximal effect; % of control where 0% means no effect; nearly all actives have a fitted effect of over 65% in size
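Luminescent ARE reporter assay in AREc32_Fluc cells: overnight plating at 37 deg C, 24 hr compound incubation, Steady-Glo added, 30 min RT before reading.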
GRP78 ERSR act = ER stress response induction in glioma | U87-MG GRP78 promoter luciferase reporter, 16 h | Potency, µM, without a hit: at the highest dose activation, actives largely listed as activators | hit rate 0.02% among 420,000 | AID 602332; also: potency is read from the fitted curve at half-maximal effect; series mostly up to about 76 µM; % of control where 0% means no effect; nearly all actives have a fitted effect of over 35% in size
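Stably transfected U87-MG human glioma cells carrying a GRP78-based luminescent sensor were seeded at 1000 cells/well, pin-dosed with compounds and incubated 16 h. Luciferase reagent was then added, and end-point luminescence was read after 10 min at room temperature.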
PTAP TSG101 blk = blocks PTAP/TSG101 interaction to inhibit HIV-1 budding | Q99816 | 340,000 tested, under 10 active | Fluorescence polarization, FITC-PTAP peptide / Tsg101 binding | Potency, µM (titrated, usually from 115 µM), without a hit: at the top dose activity change, negative = inhibition, most hits filed as inhibitors; active = well fitted inhibition curve with a large enough effect in the main read-out, with a control signal flat, not every such curve was filed as active; inconclusive = small, poorly fitted or top-dose-only effect, or effect the other way, or a change in a side signal; inactive = no such curve, though single readings can be large or run the other way; also: potency is read from the fitted curve at half-maximal effect; % of control where 0% means no effect
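Fluorescence anisotropy tracks displacement of a FITC-tagged PTAP peptide (50 nM) from the Tsg101 binding domain (10 uM), following a 20 min room-temperature incubation at pH 7.5.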
miR-21 reporter = miR-21 reporter, rising signal | HeLa miR-21 FLuc reporter, luciferase, 48 h | Potency, µM (doses to about 38.3 µM), inactives show at the top dose reporter change, positive = more light | 340,000 tested, under 10 active | AID 2288; active = well fitted rising curve with a large enough effect; inconclusive = small, poorly fitted or top-dose-only effect; inactive = no such curve, though single readings can be large or run the other way;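 note: % of control where 0% means no effect; miR-21 action dims this reporter so a rising signal means less miR-21 action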
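Compounds were titrated across several concentrations (up to approximately 40 uM) and incubated 48 hours with HeLa miR-21-FLuc reporter cells (miR-21 target sequence downstream of FLuc, endogenous miR-21). Readout was firefly luciferase luminescence after lytic detection reagent.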
Nrf2 block = inhibitors of Nrf2 signaling | A549 ARE-Fluc reporter, luciferase luminescence, 18-24 h | Potency, µM (series often up to 46 µM), without a hit: top-dose activity change, negative = inhibition, hits mostly inhibitors | hit rate 2.1% among 360,000; also: potency is read from the fitted curve at half-maximal effect; % is scaled to controls: 0 for no effect and ±100 for the full control effect; nearly all actives have a fitted effect of over 60% in size
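Quantitative HTS in A549 cells stably bearing an antioxidant response element-firefly luciferase construct. Inhibition of Nrf2-driven transcription was scored by luminescence after 18-24 h of compound exposure at 37 °C.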
FLuc counter 3 = counter-screen for Nrf2 inhibitors: firefly luciferase enzyme inhibition | shares compounds with Nrf2 block | purified firefly luciferase, luminescence inhibition | Potency, µM (series often up to 57.5 µM), inactives show at the highest dose activity change, negative = inhibition, actives largely listed as inhibitors | hit rate 4% among 1,400 | AID 720522; also: potency is read from the fitted curve at half-maximal effect; % is scaled to controls: 0 for no effect and ±100 for the full control effect; nearly all actives have a fitted effect of over 65% in size
A549 tox-2 = A549 cytotoxicity, Nrf2 inhibitor counterscreen | A549 ARE-Fluc cells, cytotoxicity counterscreen | hit rate 2% among 1,400 | Potency, µM (series often up to 46.1 µM), for inactives: at the top dose activity change, negative = cytotoxicity, hits mostly inhibitors | shares compounds with Nrf2 block;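 also: potency is read from the fitted curve at half-maximal effect; cells exposed to compounds for 18 to 24 hours; % is scaled to controls: 0 for no effect and ±100 for the full control effect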
ARE-Fluc inh = confirmation of Nrf2 inhibitors in A549 ARE reporter cells; shares compounds with Nrf2 block; A549 ARE-firefly luciferase reporter, luminescence; Potency, µM (highest dose often 46.1 µM), for inactives: at the highest dose activity change, negative = inhibition, hits mostly inhibitors; hit rate 74% among 1,400; AID 720524; also: potency is read from the fitted curve at half-maximal effect; % is scaled to controls: 0 for no effect and ±100 for the full control effect; nearly all actives have a fitted effect of over 65% in size
An asterisk follows results filed as active; ? = inconclusive; . = not tested or not shown. Compounds with a hit are over-represented: about 2.1% of the library has one in this group of screens. Unless noted, calls follow the shape of the dose curve; as a rule, active = well fitted curve in the direction sought with a large enough effect; inconclusive = small, poorly fitted or top-dose-only effect, or another doubt; inactive = no such curve, though single readings can be large; an effect the other way counts as inactive or inconclusive.

[1] CN(C)c1ccc(/C=C2\C=Cc3ccccc32)c(F)c1
[2] Cc1ccccc1NC(=O)c1ccccc1NC(=O)Cc1cccc2ccccc12
[3] Cc1ccccc1NC(=O)c1cccc2nc3ccccc3nc12
[4] COc1ccc(CN(C)C(=O)Cc2ccc(OC)c(S(=O)(=O)N3CCOCC3)c2)cc1OC
[5] COc1ccc(Br)cc1CN(C)C(=O)Cc1ccc(OC)c(S(=O)(=O)N2CCOCC2)c1

Compound | 1 | 2 | 3 | 4 | 5
A549 tox-1 | . | 11% | -27% | -2% | 11%
Nrf2 activator | . | 0% | 0% | -1% | 0%
GRP78 ERSR act | -2% | -4% | -4% | -2% | 0%
PTAP TSG101 blk | . | 1% | -6% | 0% | -1%
miR-21 reporter | . | 4% | -3% | . | .
Nrf2 block | . | 0% | 5.2µM* | 19% | 8.2µM*
FLuc counter 3 | . | . | -11% | . | 4%
A549 tox-2 | . | . | ? | . | -2%
ARE-Fluc inh | . | . | 10µM* | . | 0%

Quoted from the listing:
`Cc1ccccc1NC(=O)c1cccc2nc3ccccc3nc12` in PTAP TSG101 blk shows -6%
`COc1ccc(CN(C)C(=O)Cc2ccc(OC)c(S(=O)(=O)N3CCOCC3)c2)cc1OC` in Nrf2 block shows 19%
`COc1ccc(Br)cc1CN(C)C(=O)Cc1ccc(OC)c(S(=O)(=O)N2CCOCC2)c1` in Nrf2 activator shows 0%

The list continues:
[6] COc1cccc(OC)c1C1=Nn2c(nnc2-c2ccccc2O)SC1
[7] CC(Oc1ccc(Cl)cc1Cl)C(=O)Nc1ccc2oc(-c3ccncc3)nc2c1 (stereo not given)
[8] Cc1ccc(-c2nc3cc(NC(=O)C(C)C)ccc3o2)cc1
[9] Brc1cccc[n+]1CCCCCC[n+]1ccccc1Br
[10] COc1cc(C(=O)O[C@@H]2CC3CC[C@]2(C)C3(C)C)ccc1O

Compound | 6 | 7 | 8 | 9 | 10
A549 tox-1 | 3% | ? | -5% | . | .
Nrf2 activator | . | 0% | 3% | . | .
GRP78 ERSR act | . | -5% | -1% | -4% | -10%
PTAP TSG101 blk | . | -2% | -3% | . | .
miR-21 reporter | . | -6% | -57% | . | .
Nrf2 block | 13% | 4.6µM* | ? | . | .
FLuc counter 3 | . | 3% | . | . | .
A549 tox-2 | . | -16% | . | . | .
ARE-Fluc inh | . | 8.2µM* | . | . | .

[11] COc1cc(C)c(NC(C)C(=O)c2c(C)[nH]c3ccccc23)cc1OC (stereo not given)
[12] CC(C)(C)c1ccc(-c2noc(CCC(N)=O)n2)cc1
[13] CCC1CN(CCNC(=O)c2cccc3nccnc23)Cc2cc(OC)ccc2O1 (stereo not given)
[14] CC(C)CNc1nc(N)c([N+](=O)[O-])c(N2CCCCCC2)n1
[15] O=S(=O)(c1ccccc1)N1CCC(O)(CSc2ccccc2)CC1

Compound | 11 | 12 | 13 | 14 | 15
A549 tox-1 | . | -7% | . | -2% | -11%
Nrf2 activator | . | -2% | . | 3% | 0%
GRP78 ERSR act | -3% | -12% | -3% | -3% | -4%
PTAP TSG101 blk | . | -1% | . | -7% | -3%
miR-21 reporter | . | ? | . | 15% | 15%
Nrf2 block | . | 0.13µM* | . | 9.2µM* | ?
FLuc counter 3 | . | 3µM* | . | -2% | .
A549 tox-2 | . | -2% | . | 1% | .
ARE-Fluc inh | . | 0.16µM* | . | 8.2µM* | .

[16] O=S(=O)(c1ccccc1)N1CCC(O)(CSc2ccc(F)cc2)CC1
[17] Cc1ccccc1NC(=O)c1nc(S(=O)(=O)Cc2ccccc2F)ncc1Cl
[18] CC(C)=CCC/C(C)=C/CC/C(C)=C/CC/C(C)=C/C(=O)O
[19] Cc1cccc(OCC(=O)NCCCNC(=O)c2cccnc2)c1
[20] Cc1ccc(OCC(=O)NCCCNC(=O)c2cccnc2)cc1

Compound | 16 | 17 | 18 | 19 | 20
A549 tox-1 | ? | . | . | 3% | 0%
Nrf2 activator | 0% | . | . | -1% | 0%
GRP78 ERSR act | -4% | -11% | -1% | -1% | 2%
PTAP TSG101 blk | 0% | . | . | -9% | -4%
miR-21 reporter | 23% | . | . | 7% | 4%
Nrf2 block | 4.1µM* | . | . | ? | 1.8µM*
FLuc counter 3 | 0% | . | . | . | 1%
A549 tox-2 | -7% | . | . | . | 2%
ARE-Fluc inh | 6.5µM* | . | . | . | 6%

[21] COc1cc2nc(N3CCCN(C)CC3)nc(OC3CCN(C)CC3)c2cc1OC
[22] COc1cc(C=NO)nc(-c2ccccn2)c1
[23] Cc1cc(C[n+]2ccccc2)c2nsnc2c1
[24] O=S1(=O)CCOCCCN1Cc1ccc(F)cc1
[25] Clc1ccc(-c2cc(C3CCNCC3)[nH]n2)cc1

Compound | 21 | 22 | 23 | 24 | 25
A549 tox-1 | . | -23% | -13% | . | 14%
Nrf2 activator | . | 0% | 0% | . | 3%
GRP78 ERSR act | -5% | -4% | 0% | -2% | 1%
PTAP TSG101 blk | . | 0% | -10% | . | -1%
miR-21 reporter | . | . | 6% | . | -15%
Nrf2 block | . | 1.2µM* | ? | . | 3%
FLuc counter 3 | . | -12% | 0% | . | .
A549 tox-2 | . | -6% | -11% | . | .
ARE-Fluc inh | . | 2.6µM* | 2.6µM* | . | .

[26] Nc1nc(Cl)cc(N2CCC(c3cc(-c4ccc(Cl)cc4)n[nH]3)CC2)n1
[27] O=c1[nH]c(=S)c2[nH]cnc2[nH]1
[28] Cc1oc(-c2ccccc2F)nc1CSCC(=O)N1CCN(c2ccccc2)CC1
[29] COc1ccc(-c2nc(CSCC(=O)N3CCN(c4ccccc4F)CC3)c(C)o2)cc1
[30] Cc1oc(-c2ccccc2Cl)nc1CSCC(=O)N1CCCC1

Compound | 26 | 27 | 28 | 29 | 30
A549 tox-1 | ? | -2% | -22% | ? | -2%
Nrf2 activator | 6% | . | 0% | -1% | 0%
GRP78 ERSR act | -5% | -1% | -3% | -5% | 0%
PTAP TSG101 blk | -3% | . | . | . | -3%
miR-21 reporter | 24% | . | 24% | ? | 16%
Nrf2 block | 8.2µM* | -16% | 7.3µM* | 5.8µM* | ?
FLuc counter 3 | -19% | . | 2% | -22% | .
A549 tox-2 | -21% | . | -8% | -16% | .
ARE-Fluc inh | 18µM* | . | 12µM* | 9.2µM* | .

[31] COc1ccc2cc(CNCc3ccccc3C(F)(F)F)c(N3CCCC(CO)C3)nc2c1 (stereo not given)
[32] CCCCNc1ccc(C(=O)OCCN(CC)CC)cc1
[33] O=S(=O)(Nc1ccc(Cc2ccncc2)cc1)c1ccc(Br)cc1
[34] O=S(=O)(Nc1ccc(Cc2ccncc2)cc1)c1ccc(Cl)cc1
[35] Cc1ccc(S(=O)(=O)CC2CSc3nc(N)cc(=O)n32)cc1 (stereo not given)

Compound | 31 | 32 | 33 | 34 | 35
A549 tox-1 | . | . | -13% | -16% | -13%
Nrf2 activator | . | . | 3% | 1% | -1%
GRP78 ERSR act | -1% | -3% | -4% | 2% | -5%
PTAP TSG101 blk | . | . | -5% | -1% | -7%
miR-21 reporter | . | . | 8% | 1% | -6%
Nrf2 block | . | . | ? | 9.2µM* | -11%
FLuc counter 3 | . | . | . | 0% | .
A549 tox-2 | . | . | . | -1% | .
ARE-Fluc inh | . | . | . | 16µM* | .

[36] Cc1ccc(S(=O)(=O)CC2CSc3nc4ccccc4n32)cc1 (stereo not given)
[37] CC(C)C[C@H](NC(=O)[C@H](CO)NC(=O)[C@H](C)NC(=O)[C@H](CCCN=C(N)N)NC(=O)[C@H](CCCN=C(N)N)NC(=O)[C@@H](N)CC(C)C)C(=O)NCC(=O)O
[38] CCCCCCCCCCCCCCCC(=O)Nc1ccn(C2OC(CO)C(O)C2O)c(=O)n1 (stereo not given)
[39] O=NN(CCc1ccncc1)c1ccc(OCc2ccccc2)cc1

Compound | 36 | 37 | 38 | 39
A549 tox-1 | 0% | . | -3% | -19%
Nrf2 activator | -1% | . | 0% | 4%
GRP78 ERSR act | -4% | -6% | -2% | 4%
PTAP TSG101 blk | -4% | . | 0% | 0%
miR-21 reporter | 21% | . | . | 13%
Nrf2 block | 0.73µM* | . | ? | 6.5µM*
FLuc counter 3 | 0% | . | 0% | -28%
A549 tox-2 | -1% | . | -11% | -3%
ARE-Fluc inh | 1.3µM* | . | 0.82µM* | 5.8µM*

Bioassay records as filed in PubChem BioAssay.
